# Binding of CDR-mutated scFvs to a peptide of the spike HR2 region

The measurements come from Engelhart et al. 2022 (doi:10.1038/s41597-022-01779-4) through the FLAb antibody collection.

All variants were tested on one target, the spike HR2 peptide PDVDLGDISGINAS (SARS-CoV-2).

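The library (AAYL51) carries one to three amino acid substitutions per variant, with no insertions or deletions. The assay is AlphaSeq: two haploid yeast populations carry antibody and antigen on their surface. Binding brings cells together so that they mate, and sequencing counts the barcode pairs among the diploids. Read counts were normalised to the haploid input and turned into Kd by a linear fit to BCL2-family pairs of known affinity, for each replicate. There are three technical replicates.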

Parent: Ab-91, a human scFv built as VL, a 15-residue (Gly4Ser)3 linker, VH. Only the CDRs of the heavy chain vary.
VL: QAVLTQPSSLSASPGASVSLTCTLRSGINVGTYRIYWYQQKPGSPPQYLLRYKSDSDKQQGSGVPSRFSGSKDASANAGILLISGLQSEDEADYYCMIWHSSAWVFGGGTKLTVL
VH: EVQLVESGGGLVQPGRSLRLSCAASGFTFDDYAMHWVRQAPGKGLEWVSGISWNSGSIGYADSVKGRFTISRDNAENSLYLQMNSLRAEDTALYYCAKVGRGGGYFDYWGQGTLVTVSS

Changes read parent residue, position, new residue, counted from the first residue of the VH shown. This list gathers variants with a substitution at S55 (VH, numbered from residue 1). Values are apparent Kd, the geometric mean of the replicates that gave a signal; lower means stronger binding. A pair that was not seen in any replicate is written "no signal"; this usually means weak binding, but a binder can also be missed. As a blank, each scFv also met three strains without target: over library AAYL51, 21% of these pairings were detected, typically at 34 µM and seldom below 1.8 µM. The control count says in how many pairings with the empty strains this scFv gave a signal.

* S52A/S55D/G104M: 2.4 mM (1 of 3 replicates; controls 5 of 9)
* I51G/S55V/K65V: 78 µM (3 of 3 replicates; controls 8 of 9)
* I51F/S55Q/Y60P: no signal (0 of 3 replicates; controls 0 of 9)
* A33E/S55K/K65N: no signal (0 of 3 replicates; controls 0 of 9)
* S55A/D62W: 650 nM (3 of 3 replicates; controls 1 of 9)
* M34F/S55E/Y60I: no signal (0 of 3 replicates; controls 1 of 9)
* S55I/G100Y/R101Y: 14 µM (3 of 3 replicates; controls 1 of 9)
* F27H/S55P/D62P: no signal (0 of 3 replicates; controls 3 of 9)
* S52V/S55R: no signal (0 of 3 replicates; controls 0 of 9)
* T28P/S55K/G100D: 3.5 µM (2 of 3 replicates; controls 0 of 9)
* S55V/Y60V/S63G: 27 µM (1 of 3 replicates; controls 0 of 9)
* H35Q/S55D/S57L: 240 µM (3 of 3 replicates; controls 5 of 9)
* S55D/V99T: no signal (0 of 3 replicates; controls 0 of 9)
* F27H/S55W/A61R: no signal (0 of 3 replicates; controls 1 of 9)
* S55D/S63I/F106Y: 14 µM (1 of 3 replicates; controls 0 of 9)
* S55Y/K65T: no signal (0 of 3 replicates; controls 0 of 9)
* G50F/S55L/S57E: no signal (0 of 3 replicates; controls 0 of 9)
* S55K/S57W/G102P: 220 µM (2 of 3 replicates; controls 2 of 9)
* T28V/S55Y/F106E: no signal (0 of 3 replicates; controls 1 of 9)
* W53D/S55D/G56Y: 230 µM (1 of 3 replicates; controls 2 of 9)
* S55C/I58S/G102Y: 1.1 µM (1 of 3 replicates; controls 0 of 9)
* S55R: 2.7 µM (3 of 3 replicates; controls 2 of 9)
* S55N/G100I/Y108F: no signal (0 of 3 replicates; controls 1 of 9)
* M34C/W53R/S55T: 88 µM (1 of 3 replicates; controls 3 of 9)
* S55W/R101P/F106M: 2.7 µM (1 of 3 replicates; controls 2 of 9)
* S52E/S55W/F106H: no signal (0 of 3 replicates; controls 1 of 9)
* N54K/S55D/G100V: no signal (0 of 3 replicates; controls 0 of 9)
* S55R/G102P/Y108A: no signal (0 of 3 replicates; controls 0 of 9)
* D31H/S55L/G100Q: no signal (0 of 3 replicates; controls 1 of 9)
* S55L/S57R/S63V: no signal (0 of 3 replicates; controls 0 of 9)
* S55I/R101E: 190 µM (3 of 3 replicates; controls 6 of 9)
* S55L/G56D/A61R: no signal (0 of 3 replicates; controls 0 of 9)
* S52H/S55Y/F106R: no signal (0 of 3 replicates; controls 1 of 9)
* S55K/Y60S/V99L: 5.8 µM (1 of 3 replicates; controls 0 of 9)
* S55D/G56I/G104L: no signal (0 of 3 replicates; controls 1 of 9)
* M34W/S55C/V99P: no signal (0 of 3 replicates; controls 1 of 9)
* T28I/S55G/G100A: 24 nM (3 of 3 replicates; controls 1 of 9)
* S55K/V99D/G102F: 8.4 µM (1 of 3 replicates; controls 3 of 9)
* N54W/S55P: no signal (0 of 3 replicates; controls 2 of 9)
* Y32M/S55N/V99H: no signal (0 of 3 replicates; controls 0 of 9)
* D30H/S55A/S63G: 16 µM (2 of 3 replicates; controls 0 of 9)
* Y32A/S55A/Y105D: no signal (0 of 3 replicates; controls 0 of 9)
* F29C/S55C/S57R: no signal (0 of 3 replicates; controls 0 of 9)
* S55M/Y60W: no signal (0 of 3 replicates; controls 0 of 9)
* S55T/G56V/F106M: 190 nM (3 of 3 replicates; controls 1 of 9)
* G26T/I51Q/S55P: 32 µM (2 of 3 replicates; controls 2 of 9)
* S55M/G56R/S57T: no signal (0 of 3 replicates; controls 1 of 9)

4 of these entries, quoted again:

{"changes": "S55D/V99T", "Kd": "no signal", "seen in": "0/3", "control signals": "0/9"}
{"changes": "F27H/S55W/A61R", "Kd": "no signal", "seen in": "0/3", "control signals": "1/9"}
{"changes": "W53D/S55D/G56Y", "Kd": "230 µM", "seen in": "1/3", "control signals": "2/9"}
{"changes": "N54K/S55D/G100V", "Kd": "no signal", "seen in": "0/3", "control signals": "0/9"}